ChEMBL document CHEMBL1124775 (J Med Chem, 1990)

How the values were obtained:
[1] = species on record: Rattus norvegicus; experiment: Binding of [3H]diprenorphine to rat brain membranes was evaluated and receptor binding capacity was determined.; settings: Membrane
[2] = species on record: Rattus norvegicus; experiment: Binding of [3H]diprenorphine to rat striatal membranes was evaluated and receptor binding capacity was determined.; settings: Striatum, Membrane

**Q.** `CO[C@]12CC[C@@]3(C[C@@H]1C(C)(C)O)[C@H]1Cc4ccc(O)c5c4[C@@]3(CCN1CC1CC1)[C@H]2O5` was tested. Which Bmax (fM (mg of protein)-1) [1] did it give?
**A.** 209

**Q.** What about the Bmax (fM (mg of protein)-1) [2] of the same compound?
**A.** 284
